{"source": "patent US6800633B2", "about": "“Pyrrolo[2,3d]pyrimidine compositions and their use” (OSI Pharmaceuticals, Inc., priority 1998, dated 2004)", "target": "T1, A2a receptor (Homo sapiens, UniProt P29274)", "T1 construct": "expressed in transfected cells; host or cells: Saccharomyces cerevisiae (CY8342-derived strains with rat Gαs mutants, e.g. CY8362 with GαsE10K)", "test": "Yeast-based A2a receptor assay (antagonist specificity)", "assay_type": "cell-based", "data": [{"smiles": "CCCn1c(=O)c2[nH]c(C3CCCC3)nc2n(CCC)c1=O", "values": [{"measurement": "A2a receptor antagonist activity in yeast-based assay", "result": "relatively inert"}]}]}
